Source: patent publication US12233132B2, “Polyoxazoline-lipid conjugates and lipid nanoparticles and pharmaceutical compositions including same” (Serina Therapeutics, Inc., priority 2021, dated 2025)
Where two headings read alike, the source gives them in different places. Marks after values point to notes of the source that are not given here.

The chains behind the UniProt entries cited, without tags or fusion partners.
UniProt O00519, whole entry: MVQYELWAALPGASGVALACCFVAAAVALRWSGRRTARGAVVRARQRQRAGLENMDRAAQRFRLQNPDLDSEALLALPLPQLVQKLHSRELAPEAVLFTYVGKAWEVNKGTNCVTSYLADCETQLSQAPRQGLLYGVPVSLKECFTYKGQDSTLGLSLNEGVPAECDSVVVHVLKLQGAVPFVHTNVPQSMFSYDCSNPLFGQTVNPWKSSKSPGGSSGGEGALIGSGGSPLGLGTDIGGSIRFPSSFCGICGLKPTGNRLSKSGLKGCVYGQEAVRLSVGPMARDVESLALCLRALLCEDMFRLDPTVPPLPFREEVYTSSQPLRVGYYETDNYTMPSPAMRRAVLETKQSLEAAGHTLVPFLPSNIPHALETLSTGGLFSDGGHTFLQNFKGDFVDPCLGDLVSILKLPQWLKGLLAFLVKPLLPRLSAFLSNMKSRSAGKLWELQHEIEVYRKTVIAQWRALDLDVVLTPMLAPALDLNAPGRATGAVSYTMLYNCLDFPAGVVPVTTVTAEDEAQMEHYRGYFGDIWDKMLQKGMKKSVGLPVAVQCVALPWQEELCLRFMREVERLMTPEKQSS

Columns and labels:
[1] = Hydrolysis kinetics of POZ-lipid conjugates in rat plasma; assay type: in vitro ADME; conditions: 37° C.; for Half-Life 50% Rat Plasma: 50% rat plasma diluted in PBS
Protocol: (§1) These solutions were spiked into the PBS or rat or human plasma media and allowed to incubate at 37° C. Samples were removed from hydrolysis media at different time intervals and quenched by addition of chilled 0.2% formic acid in methanol. […] The POZ-lipid conjugates were detected by UV absorption at 210 nm, and its breakdown and degradation metabolites were detected followed by mass spectrometry.

[2] = Hydrolysis kinetics of POZ-lipid conjugates in human plasma; assay type: in vitro ADME; conditions: for rate of hydrolysis in plasma, ester versus ether linkages: compared with ether linkages (Compounds 17a, 17b and 17c)
Protocol: as §1

[3] = target: fatty acid amide hydrolase 1, active human recombinant (FAAH1) (Homo sapiens, UniProt O00519); conditions: UV 210 nm
[4] = 50% human plasma diluted in PBS, 37° C.
[5] = 50% human plasma, 37° C., extrapolated from a plot using Microsoft Excel

Substance	Half-Life 50% Rat Plasma [1] [h]	Half-Life 50% Human Plasma [2, 4] [h]	rate of hydrolysis in plasma, ester versus ether linkages [2]	Half-Life 50% Human Plasma [2, 5]	also measured
PEOZ 2K DMG Ester [Compound 20b]	<1	10	faster rate	–	–
PEOZ 2K Dimyristoyl glycerol ether [Compound 17c]	1	–	–	180** hour	–
PEOZ-dimyristoyl Glycerol Ether [Compound 17b]	<1	–	–	166** hour	–
PMOZ 2K DMG Ester [Compound 20a]	1	7	faster rate	–	–
PMOZ 5k Dimyristoyl glycerol ether [Compound 17a]	<1	–	–	258** hour	–
PMOZ-dimyristylamide [Compound 15a]	–	–	–	–	Half-Life Rat Plasma ([1]; experiment conducted with 100% Plasma (rat)): NRx* (No apparent reaction (hydrolysis) after 120 h); Half-Life Human Plasma ([2]; experiment conducted with 100% Plasma (human), 37° C.): NRx* (No apparent reaction (hydrolysis) after 120 h); Peak Area of POZ-DMA Analyte ([3]; With Amidase, overnight at 37° C.): 771; Peak Area of POZ-DMA Analyte ([3]; time zero): 1139
